Data from patent publication US6673827B1, “Methods of treating fungal infections with inhibitors of NAD synthetase enzyme” (priority 1999, dated 2004).

Test system: Candida albicans (ATCC 10231)
Test: Minimum Inhibitory Concentration (MIC) against yeast, broth dilution
Assay type: cell-based
Conditions: ATCC10231, 20 h, read-out: MIC Candida albicans (ATCC 10231)

- MIC: 0.78 µg/mL
SMILES: COC(=O)c1cc2cc(OCc3ccccc3)ccc2n1CCCCCCCCC[n+]1ccccc1 [Compound 230]
